Sequences of proteins named here, by UniProt entry; tags and fusion partners are left off.
UniProt P30560, whole entry: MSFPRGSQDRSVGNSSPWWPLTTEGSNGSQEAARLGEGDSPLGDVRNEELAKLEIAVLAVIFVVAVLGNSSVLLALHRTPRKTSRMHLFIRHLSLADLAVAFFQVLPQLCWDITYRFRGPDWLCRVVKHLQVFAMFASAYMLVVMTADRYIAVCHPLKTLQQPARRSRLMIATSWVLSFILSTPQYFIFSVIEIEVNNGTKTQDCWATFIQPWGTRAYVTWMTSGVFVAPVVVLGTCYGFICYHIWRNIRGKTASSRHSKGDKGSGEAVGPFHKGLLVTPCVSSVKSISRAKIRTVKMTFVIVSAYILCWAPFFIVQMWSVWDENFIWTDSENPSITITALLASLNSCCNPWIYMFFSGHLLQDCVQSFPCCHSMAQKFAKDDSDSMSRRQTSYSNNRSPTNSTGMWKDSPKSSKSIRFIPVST

In US5968938A, “Piperazine oxytocin receptor antagonists” (Merck & Co., Inc., priority 1998, dated 1999):

Assays:
[1] = biological target: T1, AVP-V1 site (rat liver) (Rattus norvegicus, UniProt P30560); assay: [3H]arginine vasopressin binding, rat liver membranes; settings: equilibrium saturation binding, n=3
T1 construct: from tissue; host or cells: liver of male rats
From the text: (§1) Ther., 256(1): 304-308 (1991)].

[2] = biological target: T2, human oxytocin receptor (Homo sapiens, UniProt P30559); assay: [3H]oxytocin binding, human uterine tissue (myometrium) membranes; settings: equilibrium saturation binding, n=3
T2 construct: tissue Oregon Health Sciences Center, Portland, Or; host or cells: uterine tissue (full thickness) from nonlabor pregnant women, 38 to 39 weeks gestation
T2 sequence (P30559 1-389): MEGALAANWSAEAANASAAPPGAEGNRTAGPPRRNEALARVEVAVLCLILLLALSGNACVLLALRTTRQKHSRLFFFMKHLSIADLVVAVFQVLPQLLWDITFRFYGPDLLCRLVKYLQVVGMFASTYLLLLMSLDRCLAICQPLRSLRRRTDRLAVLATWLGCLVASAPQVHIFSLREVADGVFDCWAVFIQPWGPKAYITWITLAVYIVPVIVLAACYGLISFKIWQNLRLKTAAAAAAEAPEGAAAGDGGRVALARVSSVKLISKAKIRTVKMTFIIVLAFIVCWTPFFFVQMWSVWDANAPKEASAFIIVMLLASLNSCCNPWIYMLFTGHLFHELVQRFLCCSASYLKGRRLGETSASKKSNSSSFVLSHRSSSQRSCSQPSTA
From the text: as §1

## [^3 H]arginine vasopressin [[^3 H]AVP]
[1]
  Kd: 0.21 nM

## [^3 H]oxytocin [[^3 H]OT]
[2]
  Kd: 1.1 nM
